Measured values taken from paper PMC5216351, “Obtaining control of cell surface functionalizations via Pre-targeting and Supramolecular host guest interactions” (Scientific Reports, 2017).

The chains behind the UniProt entries cited, without tags or fusion partners.
UniProt P61073, whole entry: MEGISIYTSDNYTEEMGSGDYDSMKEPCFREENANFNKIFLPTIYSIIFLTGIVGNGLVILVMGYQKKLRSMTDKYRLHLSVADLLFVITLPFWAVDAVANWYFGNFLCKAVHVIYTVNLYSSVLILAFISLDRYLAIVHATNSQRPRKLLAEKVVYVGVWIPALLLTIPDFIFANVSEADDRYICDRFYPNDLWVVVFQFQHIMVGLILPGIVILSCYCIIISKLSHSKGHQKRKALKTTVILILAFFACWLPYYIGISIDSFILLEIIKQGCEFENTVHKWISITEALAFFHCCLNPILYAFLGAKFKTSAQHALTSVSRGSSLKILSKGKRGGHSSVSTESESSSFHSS

Tests used:
MDAMB231 X4 cells = test: Host-guest dependent cell functionalization, confocal microscopy and flow cytometry; type: cell-based, human; conditions: peptide 10 μM, polymer 10 μM β-CD / 1 μM polymer, 1 h each at 0 °C; Fig. 3a
Experimental: The receptor-mediated functionalization of cells was examined by confocal microscopy and flow cytometry (see also ‘Ac-TZ14011-Ad induced cell functionalization analyzed by flow cytometry’). For Confocal microscopy MDAMB231 × 4 cells (80,000 per well) were incubated with either Ac-TZ14011 (10 μM), Ac-TZ14011-Ad (10 μM), or none, for 1 h at 0 °C in 1 mL DMEM. Subsequently, either Cy5_0.4PIBMA39 or Cy5_0.5CD10PIBMA39 was added (10 μM β-CD; 1 μM polymer final concentration) and another hour at 0 °C of incubation followed. Thereafter, the cells were washed twice with PBS and confocal images were acquired. […] The Cy5 signal present on the cell in each sample was quantified to analyze differences between the amount of binding of the polymers to the cells when either, no peptide, Ac-TZ14011, or Ac-TZ14011-Ad was present. For normalization all results were divided by the average fluorescence value obtained when just the polymer was added. The significance of the obtained differences was determined by student T-test (two tailed, unpaired).
Besides examining the receptor-mediated functionalization of cells by confocal microscopy (see ‘Ac-TZ14011-Ad induced cell functionalization analyzed by confocal microscopy’) the functionalization was also examined by flow cytometry to quantify the rate of functionalization. […]
MDAMB231 X4 cells were trypsinized (using 0.5% trypsin/EDTA, BD Biosciences) and counted. […]

[1] = biological target: chemokine receptor 4 (CXCR4) (Homo sapiens, UniProt P61073); conditions: read-out: affinity; unmodified peptide; given as affinity, compared with KD; cited from earlier work

Which results are given for `CC(=O)N[C@@H](CCCNC(=N)N)C(=O)N[C@@H](CCCNC(=N)N)C(=O)N[C@@H](Cc1ccc2ccccc2c1)C(=O)N[C@H]1CSSC[C@@H](C(=O)N[C@@H](CCCNC(=N)N)C(N)=O)NC(=O)[C@H](CCCNC(N)=O)NC(=O)[C@H](CCCNC(=N)N)NC(=O)[C@H](Cc2ccc(O)cc2)NC(=O)[C@@H]2CCCN2C(=O)[C@@H](CCCCN)NC(=O)[C@H](CCCNC(=N)N)NC(=O)[C@H](CCCNC(N)=O)NC(=O)[C@H](Cc2ccc(O)cc2)NC1=O`?
effect of pre-targeting peptide on Cy5_0.5CD10PIBMA39 binding (MDAMB231 X4 cells): induces enhanced binding of the CD-polymer; Kd [1]: 8.6 nM
